Laboratory results reported in patent US11618758B2, “Bicyclic and tricyclic pyrimidine tyrosine kinase inhibitors with antitubulin activity and methods of treating a patient” (Duquesne University of the Holy Spirit, priority 2011, dated 2023).

Protein sequences, listed by entry. Tags and fused reporters are not part of them. Residues count along the entry.
UniProt P35968, 20-1356 limits assumed: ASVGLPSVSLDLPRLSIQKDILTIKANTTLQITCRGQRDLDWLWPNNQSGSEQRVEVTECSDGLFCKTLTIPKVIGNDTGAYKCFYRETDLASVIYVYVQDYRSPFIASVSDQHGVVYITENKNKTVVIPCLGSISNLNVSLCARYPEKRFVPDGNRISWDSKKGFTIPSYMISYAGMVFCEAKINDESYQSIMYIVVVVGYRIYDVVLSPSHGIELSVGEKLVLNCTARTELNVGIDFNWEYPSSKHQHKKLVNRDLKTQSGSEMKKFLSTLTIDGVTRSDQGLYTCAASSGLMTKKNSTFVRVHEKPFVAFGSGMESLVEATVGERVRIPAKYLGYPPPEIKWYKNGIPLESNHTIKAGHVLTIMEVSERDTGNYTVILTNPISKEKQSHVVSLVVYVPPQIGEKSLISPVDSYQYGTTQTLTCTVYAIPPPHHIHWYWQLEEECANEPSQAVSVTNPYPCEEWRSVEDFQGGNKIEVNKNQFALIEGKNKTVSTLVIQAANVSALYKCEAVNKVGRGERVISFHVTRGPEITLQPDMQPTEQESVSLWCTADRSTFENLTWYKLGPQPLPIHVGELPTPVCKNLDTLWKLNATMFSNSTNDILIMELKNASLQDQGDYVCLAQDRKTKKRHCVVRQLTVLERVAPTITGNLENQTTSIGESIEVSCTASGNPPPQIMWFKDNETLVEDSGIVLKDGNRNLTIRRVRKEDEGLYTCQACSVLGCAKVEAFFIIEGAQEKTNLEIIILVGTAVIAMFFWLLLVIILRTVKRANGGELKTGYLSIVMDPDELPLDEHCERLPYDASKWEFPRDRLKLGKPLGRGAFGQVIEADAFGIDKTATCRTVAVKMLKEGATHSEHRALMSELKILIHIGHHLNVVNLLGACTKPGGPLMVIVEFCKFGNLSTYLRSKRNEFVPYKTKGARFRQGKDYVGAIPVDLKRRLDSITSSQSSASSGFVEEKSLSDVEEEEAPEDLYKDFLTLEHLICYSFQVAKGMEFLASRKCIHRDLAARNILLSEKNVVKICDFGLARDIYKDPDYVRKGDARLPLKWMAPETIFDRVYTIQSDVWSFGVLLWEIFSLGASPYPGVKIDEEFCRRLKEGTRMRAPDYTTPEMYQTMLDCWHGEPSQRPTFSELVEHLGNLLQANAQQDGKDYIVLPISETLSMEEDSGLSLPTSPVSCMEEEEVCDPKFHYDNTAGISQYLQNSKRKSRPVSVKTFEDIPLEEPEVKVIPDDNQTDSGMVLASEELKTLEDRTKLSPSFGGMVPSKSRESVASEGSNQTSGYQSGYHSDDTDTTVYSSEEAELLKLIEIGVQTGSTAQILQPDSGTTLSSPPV
UniProt P00533, 25-1210 limits assumed: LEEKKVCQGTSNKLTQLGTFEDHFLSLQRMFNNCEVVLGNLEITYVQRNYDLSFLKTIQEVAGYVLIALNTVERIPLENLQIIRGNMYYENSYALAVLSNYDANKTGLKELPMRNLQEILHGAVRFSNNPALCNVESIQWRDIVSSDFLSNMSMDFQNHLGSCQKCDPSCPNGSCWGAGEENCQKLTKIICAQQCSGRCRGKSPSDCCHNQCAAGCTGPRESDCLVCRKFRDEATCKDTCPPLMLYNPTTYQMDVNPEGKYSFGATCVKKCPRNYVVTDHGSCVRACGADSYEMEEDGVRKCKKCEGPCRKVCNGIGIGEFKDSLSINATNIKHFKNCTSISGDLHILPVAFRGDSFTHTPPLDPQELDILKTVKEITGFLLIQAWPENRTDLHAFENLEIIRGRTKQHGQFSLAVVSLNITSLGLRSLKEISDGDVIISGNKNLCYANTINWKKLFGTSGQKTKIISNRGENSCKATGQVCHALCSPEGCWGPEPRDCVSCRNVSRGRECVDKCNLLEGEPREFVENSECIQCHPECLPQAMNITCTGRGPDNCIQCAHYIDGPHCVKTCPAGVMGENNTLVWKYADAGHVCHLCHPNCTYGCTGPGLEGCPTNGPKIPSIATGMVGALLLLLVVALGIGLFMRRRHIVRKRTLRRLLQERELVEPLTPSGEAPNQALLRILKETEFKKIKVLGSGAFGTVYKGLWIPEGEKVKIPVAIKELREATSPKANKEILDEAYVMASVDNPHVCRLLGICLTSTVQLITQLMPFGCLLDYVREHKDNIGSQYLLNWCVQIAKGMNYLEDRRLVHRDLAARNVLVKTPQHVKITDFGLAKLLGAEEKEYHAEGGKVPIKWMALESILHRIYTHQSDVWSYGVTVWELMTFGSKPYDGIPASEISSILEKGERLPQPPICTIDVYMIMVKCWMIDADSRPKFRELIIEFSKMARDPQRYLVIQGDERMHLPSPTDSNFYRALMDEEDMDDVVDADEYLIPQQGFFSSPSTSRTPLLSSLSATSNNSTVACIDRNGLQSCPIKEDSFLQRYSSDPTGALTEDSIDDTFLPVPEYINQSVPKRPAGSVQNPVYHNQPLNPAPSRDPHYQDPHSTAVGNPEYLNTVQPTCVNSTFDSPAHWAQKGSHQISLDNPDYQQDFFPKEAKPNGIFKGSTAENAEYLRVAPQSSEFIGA
UniProt P09619, 33-1106 limits assumed: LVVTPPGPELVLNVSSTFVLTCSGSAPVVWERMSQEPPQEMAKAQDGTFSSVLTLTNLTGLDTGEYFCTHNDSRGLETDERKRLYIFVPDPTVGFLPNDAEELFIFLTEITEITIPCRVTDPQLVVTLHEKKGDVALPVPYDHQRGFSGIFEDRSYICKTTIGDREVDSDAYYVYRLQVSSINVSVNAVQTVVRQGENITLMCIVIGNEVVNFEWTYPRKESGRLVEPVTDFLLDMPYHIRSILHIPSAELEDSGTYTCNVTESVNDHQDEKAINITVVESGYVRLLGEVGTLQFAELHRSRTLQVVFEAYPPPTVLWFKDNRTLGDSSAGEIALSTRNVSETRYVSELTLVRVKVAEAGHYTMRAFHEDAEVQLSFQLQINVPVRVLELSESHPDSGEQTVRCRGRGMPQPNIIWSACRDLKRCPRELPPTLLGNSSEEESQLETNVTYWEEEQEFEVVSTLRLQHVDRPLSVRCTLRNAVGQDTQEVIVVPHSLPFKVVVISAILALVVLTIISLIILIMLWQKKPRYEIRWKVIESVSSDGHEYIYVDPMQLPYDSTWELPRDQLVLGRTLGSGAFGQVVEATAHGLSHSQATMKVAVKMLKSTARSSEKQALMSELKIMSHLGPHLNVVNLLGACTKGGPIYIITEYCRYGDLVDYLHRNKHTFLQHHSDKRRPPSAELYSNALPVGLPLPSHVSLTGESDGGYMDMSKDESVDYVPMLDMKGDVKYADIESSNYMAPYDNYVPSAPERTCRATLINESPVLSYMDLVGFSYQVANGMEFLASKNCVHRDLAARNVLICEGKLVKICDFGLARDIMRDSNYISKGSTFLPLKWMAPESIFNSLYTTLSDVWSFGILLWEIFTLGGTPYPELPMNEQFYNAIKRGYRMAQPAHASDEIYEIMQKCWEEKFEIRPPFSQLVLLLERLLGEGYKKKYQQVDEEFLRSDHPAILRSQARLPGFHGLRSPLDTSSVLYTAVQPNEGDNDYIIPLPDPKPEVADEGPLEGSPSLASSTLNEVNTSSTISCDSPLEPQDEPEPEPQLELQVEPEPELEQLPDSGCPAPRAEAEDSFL

Key:
[1] = target: vascular endothelial growth factor receptor (VEGFR2, Flk-1) (Homo sapiens, UniProt P35968); experiment: Kinase inhibition VEGFR2; assay type: biochemical; settings: tested form: HCl
[2] = test system: colchicine binding site on tubulin; experiment: Inhibition of [3H]colchicine binding; settings: compound at 1 μM, tested form: HCl
[3] = test system: 50 other kinases; experiment: Kinase profiling service (Luceome Biotechnologies); assay type: biochemical; settings: 10 μM; tested form: HCl
[4] = test system: Pgp or MRP; experiment: Pgp / MRP substrate status; settings: tested form: HCl
[5] = test system: NCI 60 tumor cell lines; experiment: NCI 60 tumor panel, whole panel statement; settings: tested form: HCl
[6] = target: epidermal growth factor receptor (EGFR) (Homo sapiens, UniProt P00533); experiment: Kinase inhibition EGFR; assay type: biochemical; settings: tested form: HCl
[7] = test system: HCT-15; experiment: NCI 60 tumor panel, tumor cell inhibitory activity; settings: Colon Cancer, tested form: HCl
[8] = test system: IGROVI; experiment: NCI 60 tumor panel, tumor cell inhibitory activity; settings: Ovarian cancer, tested form: HCl
[9] = test system: SN12C; experiment: NCI 60 tumor panel, tumor cell inhibitory activity; settings: Renal Cancer, tested form: HCl
[10] = test system: OVCAR-8; experiment: NCI 60 tumor panel, tumor cell inhibitory activity; settings: Ovarian cancer, tested form: HCl
[11] = test system: HT29; experiment: NCI 60 tumor panel, tumor cell inhibitory activity; settings: Colon Cancer, tested form: HCl
[12] = test system: NCI-H226; experiment: NCI 60 tumor panel, tumor cell inhibitory activity; settings: NSCLC, tested form: HCl
[13] = test system: A498; experiment: NCI 60 tumor panel, tumor cell inhibitory activity; settings: Renal Cancer, tested form: HCl
[14] = test system: HL-60 (TB); experiment: NCI 60 tumor panel, tumor cell inhibitory activity; settings: Leukemia, tested form: HCl
[15] = test system: UACC-62; experiment: NCI 60 tumor panel, tumor cell inhibitory activity; settings: Melanoma, tested form: HCl
[16] = test system: M14; experiment: NCI 60 tumor panel, tumor cell inhibitory activity; settings: Melanoma, tested form: HCl
[17] = test system: RXF 393; experiment: NCI 60 tumor panel, tumor cell inhibitory activity; settings: Renal Cancer, tested form: HCl
[18] = test system: SK-MEL-28; experiment: NCI 60 tumor panel, tumor cell inhibitory activity; settings: Melanoma, tested form: HCl
[19] = test system: SK-OV-3; experiment: NCI 60 tumor panel, tumor cell inhibitory activity; settings: Ovarian cancer, tested form: HCl
[20] = test system: NCI-H322M; experiment: NCI 60 tumor panel, tumor cell inhibitory activity; settings: NSCLC, tested form: HCl
[21] = test system: HS 578T; experiment: NCI 60 tumor panel, tumor cell inhibitory activity; settings: Breast Cancer, tested form: HCl
[22] = test system: 786-0; experiment: NCI 60 tumor panel, tumor cell inhibitory activity; settings: Renal Cancer, tested form: HCl
[23] = test system: NCI/ADR-RES; experiment: NCI 60 tumor panel, tumor cell inhibitory activity; settings: Ovarian cancer, tested form: HCl
[24] = test system: SK-MEL-5; experiment: NCI 60 tumor panel, tumor cell inhibitory activity; settings: Melanoma, tested form: HCl
[25] = test system: SW-620; experiment: NCI 60 tumor panel, tumor cell inhibitory activity; settings: Colon Cancer, tested form: HCl
[26] = test system: SNB-75; experiment: NCI 60 tumor panel, tumor cell inhibitory activity; settings: CNS Cancer, tested form: HCl
[27] = test system: UO-31; experiment: NCI 60 tumor panel, tumor cell inhibitory activity; settings: Renal Cancer, tested form: HCl
[28] = test system: CCRF-CEM; experiment: NCI 60 tumor panel, tumor cell inhibitory activity; settings: Leukemia, tested form: HCl
[29] = test system: ACHN; experiment: NCI 60 tumor panel, tumor cell inhibitory activity; settings: Renal Cancer, tested form: HCl
[30] = test system: K-562; experiment: NCI 60 tumor panel, tumor cell inhibitory activity; settings: Leukemia, tested form: HCl
[31] = test system: RPMI-8226; experiment: NCI 60 tumor panel, tumor cell inhibitory activity; settings: Leukemia, tested form: HCl
[32] = test system: PC-3; experiment: NCI 60 tumor panel, tumor cell inhibitory activity; settings: Prostate Cancer, tested form: HCl
[33] = test system: EKVX; experiment: NCI 60 tumor panel, tumor cell inhibitory activity; settings: NSCLC, tested form: HCl
[34] = test system: KM12; experiment: NCI 60 tumor panel, tumor cell inhibitory activity; settings: Colon Cancer, tested form: HCl
[35] = test system: SF-539; experiment: NCI 60 tumor panel, tumor cell inhibitory activity; settings: CNS Cancer, tested form: HCl
[36] = test system: HCC-2998; experiment: NCI 60 tumor panel, tumor cell inhibitory activity; settings: Colon Cancer, tested form: HCl
[37] = test system: MDA-MB-468; experiment: NCI 60 tumor panel, tumor cell inhibitory activity; settings: Breast Cancer, tested form: HCl
[38] = test system: SK-MEL-2; experiment: NCI 60 tumor panel, tumor cell inhibitory activity; settings: Melanoma, tested form: HCl
[39] = test system: LOX IMVI; experiment: NCI 60 tumor panel, tumor cell inhibitory activity; settings: Melanoma, tested form: HCl
[40] = test system: MOLT-4; experiment: NCI 60 tumor panel, tumor cell inhibitory activity; settings: Leukemia, tested form: HCl
[41] = test system: BT-549; experiment: NCI 60 tumor panel, tumor cell inhibitory activity; settings: Breast Cancer, tested form: HCl
[42] = test system: OVCAR-3; experiment: NCI 60 tumor panel, tumor cell inhibitory activity; settings: Ovarian cancer, tested form: HCl
[43] = test system: U251; experiment: NCI 60 tumor panel, tumor cell inhibitory activity; settings: CNS Cancer, tested form: HCl
[44] = test system: OVCAR-5; experiment: NCI 60 tumor panel, tumor cell inhibitory activity; settings: Ovarian cancer, tested form: HCl
[45] = test system: CAKI-1; experiment: NCI 60 tumor panel, tumor cell inhibitory activity; settings: Renal Cancer, tested form: HCl
[46] = test system: HCT-116; experiment: NCI 60 tumor panel, tumor cell inhibitory activity; settings: Colon Cancer, tested form: HCl
[47] = test system: MCF7; experiment: NCI 60 tumor panel, tumor cell inhibitory activity; settings: Breast Cancer, tested form: HCl
[48] = test system: SF-268; experiment: NCI 60 tumor panel, tumor cell inhibitory activity; settings: CNS Cancer, tested form: HCl
[49] = test system: SF-295; experiment: NCI 60 tumor panel, tumor cell inhibitory activity; settings: CNS Cancer, tested form: HCl
[50] = test system: NCI-H23; experiment: NCI 60 tumor panel, tumor cell inhibitory activity; settings: NSCLC, tested form: HCl
[51] = test system: HOP-92; experiment: NCI 60 tumor panel, tumor cell inhibitory activity; settings: NSCLC, tested form: HCl
[52] = test system: A549/ATCC; experiment: NCI 60 tumor panel, tumor cell inhibitory activity; settings: NSCLC, tested form: HCl
[53] = test system: DU-145; experiment: NCI 60 tumor panel, tumor cell inhibitory activity; settings: Prostate Cancer, tested form: HCl
[54] = test system: SNB-19; experiment: NCI 60 tumor panel, tumor cell inhibitory activity; settings: CNS Cancer, tested form: HCl
[55] = test system: COLO 205; experiment: NCI 60 tumor panel, tumor cell inhibitory activity; settings: Colon Cancer, tested form: HCl
[56] = test system: NCI-H460; experiment: NCI 60 tumor panel, tumor cell inhibitory activity; settings: NSCLC, tested form: HCl
[57] = test system: MDA-MB-435; experiment: NCI 60 tumor panel, tumor cell inhibitory activity; settings: Melanoma, tested form: HCl
[58] = test system: HOP-62; experiment: NCI 60 tumor panel, tumor cell inhibitory activity; settings: NSCLC, tested form: HCl
[59] = test system: SR; experiment: NCI 60 tumor panel, tumor cell inhibitory activity; settings: Leukemia, tested form: HCl
[60] = test system: OVCAR-4; experiment: NCI 60 tumor panel, tumor cell inhibitory activity; settings: Ovarian cancer, tested form: HCl
[61] = test system: MDA-MB-231/ATCC; experiment: NCI 60 tumor panel, tumor cell inhibitory activity; settings: Breast Cancer, tested form: HCl
[62] = target: platelet derived growth factor receptor-β (PDGFR-β) (Homo sapiens, UniProt P09619); experiment: Kinase inhibition PDGFRβ; assay type: biochemical; settings: tested form: HCl

In the case of `COc1ccc2c(c1)CCCN2c1nc(C)nc2cc(C)[nH]c12`, the “Flk-1 (VEGR2) kinase inhibition (in words, FIG. 16)” value ([1]; comparable to sunitinib) is reported as “potent inhibitors”, the IC50 ([1]; read-out: kinase inhibition IC50 VEGFR2) is reported as 30600 nM and the Inhibition of colchicine binding (1 μM) [2] is reported as 76%. For the same compound, the “activity against 50 other kinases” value [3] was “no activity”, the “Pgp or MRP substrate” value [4] was “unlikely to be Pgp or MRP substrates” and the “GI50 in all the NCI 60 tumor cell lines (in words)” value [5] was 2-digit nanomolar. The “EGFR kinase inhibition (in words, FIG. 16)” value ([6]; comparable to sunitinib) was “potent inhibitors”, the IC50 ([6]; read-out: kinase inhibition IC50 EGFR) was 20200 nM and the GI50 [7] was 42.1 nM. It also gave a GI50 [8] of 47 nM, a GI50 [9] of 84.9 nM and a GI50 [10] of 43.9 nM. The GI50 [11] was 37.7 nM, the GI50 [12] was 82.3 nM and the GI50 [13] was 24.3 nM. The GI50 [14] was 26.2 nM, the GI50 [15] was 48.4 nM and the GI50 [16] was 29.4 nM. For the same compound, the GI50 [17] was 28.9 nM, the GI50 [18] was 74.9 nM and the GI50 [19] was 33.9 nM. It also gave a GI50 [20] of 44.2 nM, a GI50 [21] of 30.2 nM and a GI50 [22] of 63.1 nM. For the same compound, the GI50 [23] was 29.4 nM, the GI50 [24] was 48.6 nM and the GI50 [25] was 39.8 nM. It also gave a GI50 [26] of 38 nM, a GI50 [27] of 54.3 nM and a GI50 [28] of 35.1 nM. It also gave a GI50 [29] of 70.1 nM, a GI50 [30] of 41.5 nM and a GI50 [31] of 42.9 nM. It also gave a GI50 [32] of 50.4 nM, a GI50 [33] of 99.6 nM and a GI50 [34] of 35.6 nM. It also gave a GI50 [35] of 25.4 nM, a GI50 [36] of 86 nM and a GI50 [37] of 23.4 nM. The GI50 [38] was 56.5 nM, the GI50 [39] was 72.5 nM and the GI50 [40] was 98.3 nM. The GI50 [41] was 218 nM, the GI50 [42] was 22.7 nM and the GI50 [43] was 39.9 nM. For the same compound, the GI50 [44] was 60.7 nM, the GI50 [45] was 42.3 nM and the GI50 [46] was 39.2 nM. It also gave a GI50 [47] of 38 nM, a GI50 [48] of 62.6 nM and a GI50 [49] of 16.6 nM. For the same compound, the GI50 [50] was 71 nM, the GI50 [51] was 59.5 nM and the GI50 [52] was 40.1 nM. It also gave a GI50 [53] of 34.9 nM, a GI50 [54] of 50.3 nM and a GI50 [55] of 27.4 nM. The GI50 [56] was 36.9 nM, the GI50 [57] was 17 nM and the GI50 [58] was 45.3 nM. The GI50 [59] was 30.9 nM, the GI50 [60] was 96.6 nM and the GI50 [61] was 101 nM. The “PDGFR kinase inhibition (in words, FIG. 16)” value ([62]; comparable to sunitinib) was “potent inhibitors” and the IC50 ([62]; read-out: kinase inhibition IC50 PDGFRβ) was 82300 nM.
